In this series the test system is human lymphoblastoid TK6 cells.

`CCN(CC)c1cccc(O)c1` [NSACB 4, 3-diethylaminophenol]: the “MicroFlow %MN response (text)” value was “concentration-response pattern at the lowest concentrations before decreasing or plateauing at the higher concentrations” and the “MicroFlow summary classification (MN induction)” value is reported as “+”.

Values taken from PMC9899896, “Application of a new approach methodology (NAM)-based strategy for genotoxicity assessment of data-poor compounds” (Frontiers in Toxicology, 2023).
